# From ChEMBL document CHEMBL1201862, “PubChem BioAssay data set” (2004)
# Sequences of proteins named here, by UniProt entry; tags and fusion partners are left off.
# UniProt P10635, whole entry: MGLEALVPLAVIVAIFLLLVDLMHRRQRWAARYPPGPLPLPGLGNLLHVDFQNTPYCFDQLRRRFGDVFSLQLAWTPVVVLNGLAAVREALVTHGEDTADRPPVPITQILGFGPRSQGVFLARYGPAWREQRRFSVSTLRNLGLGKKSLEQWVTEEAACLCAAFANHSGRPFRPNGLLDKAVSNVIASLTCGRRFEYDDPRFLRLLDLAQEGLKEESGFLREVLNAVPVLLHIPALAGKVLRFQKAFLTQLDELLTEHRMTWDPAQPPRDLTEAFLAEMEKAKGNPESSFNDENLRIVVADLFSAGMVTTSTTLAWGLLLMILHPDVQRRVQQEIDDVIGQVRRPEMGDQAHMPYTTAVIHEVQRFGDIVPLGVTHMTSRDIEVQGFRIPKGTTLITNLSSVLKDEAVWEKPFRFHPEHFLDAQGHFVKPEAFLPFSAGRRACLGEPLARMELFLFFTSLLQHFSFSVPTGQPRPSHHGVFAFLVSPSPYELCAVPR
# UniProt P05177, whole entry: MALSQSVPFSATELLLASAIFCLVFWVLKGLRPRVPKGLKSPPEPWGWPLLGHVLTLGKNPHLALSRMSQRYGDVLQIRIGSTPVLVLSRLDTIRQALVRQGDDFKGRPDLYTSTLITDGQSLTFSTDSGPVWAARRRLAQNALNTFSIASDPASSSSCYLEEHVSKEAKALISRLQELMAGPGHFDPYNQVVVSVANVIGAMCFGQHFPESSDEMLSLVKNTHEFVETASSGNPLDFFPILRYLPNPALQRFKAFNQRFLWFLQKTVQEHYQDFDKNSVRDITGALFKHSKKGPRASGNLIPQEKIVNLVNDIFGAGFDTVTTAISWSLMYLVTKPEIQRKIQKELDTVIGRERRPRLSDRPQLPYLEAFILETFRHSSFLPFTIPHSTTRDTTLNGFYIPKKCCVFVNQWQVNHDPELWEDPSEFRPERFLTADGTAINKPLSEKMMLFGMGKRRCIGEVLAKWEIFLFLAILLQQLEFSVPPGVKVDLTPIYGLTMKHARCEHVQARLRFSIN
# UniProt P33261, whole entry: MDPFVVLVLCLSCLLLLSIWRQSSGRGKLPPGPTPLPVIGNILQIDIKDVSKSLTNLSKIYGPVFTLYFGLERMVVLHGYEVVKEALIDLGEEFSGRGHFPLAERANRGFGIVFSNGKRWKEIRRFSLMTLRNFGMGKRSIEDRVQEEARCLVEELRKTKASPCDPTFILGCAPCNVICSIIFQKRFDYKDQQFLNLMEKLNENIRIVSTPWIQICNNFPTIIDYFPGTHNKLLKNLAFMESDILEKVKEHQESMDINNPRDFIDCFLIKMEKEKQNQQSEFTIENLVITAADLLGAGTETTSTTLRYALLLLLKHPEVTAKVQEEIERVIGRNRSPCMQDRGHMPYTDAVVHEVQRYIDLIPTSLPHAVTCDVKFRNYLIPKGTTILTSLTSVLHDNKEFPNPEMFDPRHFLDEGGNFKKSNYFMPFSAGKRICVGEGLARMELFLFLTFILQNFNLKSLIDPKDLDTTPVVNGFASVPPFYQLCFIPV
# UniProt P11712, whole entry: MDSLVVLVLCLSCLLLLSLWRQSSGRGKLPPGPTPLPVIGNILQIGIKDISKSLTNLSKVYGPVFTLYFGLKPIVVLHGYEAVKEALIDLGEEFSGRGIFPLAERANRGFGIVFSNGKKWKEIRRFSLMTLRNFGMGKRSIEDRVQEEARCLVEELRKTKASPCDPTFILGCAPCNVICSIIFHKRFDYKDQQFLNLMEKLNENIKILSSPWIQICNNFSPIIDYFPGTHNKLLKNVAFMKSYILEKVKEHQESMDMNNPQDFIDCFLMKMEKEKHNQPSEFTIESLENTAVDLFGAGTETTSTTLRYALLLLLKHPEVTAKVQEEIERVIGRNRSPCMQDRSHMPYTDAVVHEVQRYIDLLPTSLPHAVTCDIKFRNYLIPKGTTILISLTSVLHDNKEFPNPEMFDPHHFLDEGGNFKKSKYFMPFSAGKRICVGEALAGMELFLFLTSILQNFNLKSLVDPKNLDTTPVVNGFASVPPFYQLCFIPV
# Calls of active or inactive are those of the source.
# Assays:
# Interleukin-8 [1] = target: T1, Interleukin-8 (Homo sapiens, UniProt P10145); experiment: SAR analysis of Tumor necrosis factor alpha (TNF-alpha) induced IL-8 secretion in MCF-7/NOD1 cells - Set 2. [Related pubchem assays (depositor defined):AID1575, AID2250, AID2260]; format: functional, cell-based
# T1 sequence (P10145 whole entry): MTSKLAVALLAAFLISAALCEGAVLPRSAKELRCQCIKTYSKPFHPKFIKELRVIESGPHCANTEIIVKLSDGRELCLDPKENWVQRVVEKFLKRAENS
# [2] = target: T2, Nucleotide-binding oligomerization domain-containing protein 1 (Homo sapiens, UniProt Q9Y239); experiment: NOD1 signaling inhibitors, SAR follow-up, revised (AID 2333); format: functional
# T2 sequence (Q9Y239 whole entry): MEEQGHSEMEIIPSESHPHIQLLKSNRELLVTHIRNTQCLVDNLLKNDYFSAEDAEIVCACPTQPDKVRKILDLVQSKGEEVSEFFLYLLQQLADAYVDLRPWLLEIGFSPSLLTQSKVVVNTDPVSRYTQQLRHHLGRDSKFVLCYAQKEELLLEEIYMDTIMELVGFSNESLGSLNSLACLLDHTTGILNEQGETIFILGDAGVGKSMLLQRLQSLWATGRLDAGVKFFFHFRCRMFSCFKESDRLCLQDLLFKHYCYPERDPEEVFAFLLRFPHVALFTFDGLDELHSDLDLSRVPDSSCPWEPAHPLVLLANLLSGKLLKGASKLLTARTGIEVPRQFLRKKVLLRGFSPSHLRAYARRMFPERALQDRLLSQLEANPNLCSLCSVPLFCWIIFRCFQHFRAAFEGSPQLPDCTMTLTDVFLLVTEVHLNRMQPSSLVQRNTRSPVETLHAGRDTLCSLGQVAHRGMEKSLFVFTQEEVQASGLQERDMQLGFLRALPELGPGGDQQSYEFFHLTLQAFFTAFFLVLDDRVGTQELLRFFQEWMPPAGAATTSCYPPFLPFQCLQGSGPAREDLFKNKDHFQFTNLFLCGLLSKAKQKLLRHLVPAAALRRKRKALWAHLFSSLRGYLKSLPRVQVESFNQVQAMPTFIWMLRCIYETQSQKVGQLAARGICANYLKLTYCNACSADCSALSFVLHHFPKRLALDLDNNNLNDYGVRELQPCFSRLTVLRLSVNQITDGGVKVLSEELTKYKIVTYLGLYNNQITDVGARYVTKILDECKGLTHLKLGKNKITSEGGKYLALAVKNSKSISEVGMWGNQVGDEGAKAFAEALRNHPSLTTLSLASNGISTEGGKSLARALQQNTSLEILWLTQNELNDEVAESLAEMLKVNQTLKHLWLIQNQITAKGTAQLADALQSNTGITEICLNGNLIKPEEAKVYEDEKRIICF
# Interleukin-8 [3] = target: T1, Interleukin-8; experiment: SAR analysis of tumor necrosis factor alpha (TNF-alpha) induced IL-8 secretion in MCF-7/NOD1 cells. [Related pubchem assays (depositor defined):AID1575, AID2250, AID2260]; format: functional, cell-based
# HEK293 = experiment: NOD1 signaling inhibitors, primary screen, cell-based, luminescence, uHTS (AID 1578); format: functional; conditions: Homo sapiens
# [4] = target: T2, Nucleotide-binding oligomerization domain-containing protein 1; experiment: SAR analysis of compounds that inhibit NOD1 - Set 2. [Related pubchem assays (depositor defined):AID1566, AID1575, AID1578, AID1849, AID1852, AID2333, AID2335, AID2798]; format: functional
# Cytochrome P450 2D6 = Cytochrome P450 2D6 (Homo sapiens, UniProt P10635);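 further: CYP2D6 member of a cytochrome P450 panel assay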
# Cytochrome P450 1A2 = Cytochrome P450 1A2 (Homo sapiens, UniProt P05177);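 further: PubChem cytochrome P450 panel assay, CYP1A2 panel member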
# Cytochrome P450 2C19 = Cytochrome P450 2C19 (Homo sapiens, UniProt P33261); experiment: Cytochrome panel assay with activity outcomes. Panel member name: p450-cyp2c19 Compounds with AC50 equal or less than 10 uM are considered active; format: functional
# Cytochrome P450 2C9 = Cytochrome P450 2C9 (Homo sapiens, UniProt P11712)
SMILES,IC50 (Interleukin-8 [1]),IC50 [2],IC50 (Interleukin-8 [3]),EC50 (HEK293),IC50 [4],AC50 (Cytochrome P450 2D6),AC50 (Cytochrome P450 1A2),AC50 (Cytochrome P450 2C19),AC50 (Cytochrome P450 2C9)
Cc1ccc(S(=O)(=O)n2c(N)nc3ccccc32)cc1,inactive: > 25000 nM,active: 706 nM,inactive: > 25000 nM,active: 460 nM,active: 720 nM,–,–,–,–
O=C(O)CCCC[C@H]1SC[C@H]2NC(=O)N[C@@H]21,–,–,–,–,–,inactive,inactive,inactive,inactive
COc1cccc2c1C(=O)c1c(O)c3c(c(O)c1C2=O)C[C@@](O)(C(C)=O)C[C@@H]3O[C@H]1C[C@H](N)[C@H](O)[C@H](C)O1 [DAUNORUBICIN],–,–,–,–,–,–,–,inactive,inactive
